Literature values as cited in patent publication US6921545B2 (priority 2001, dated 2005).

Test system: insect eggs
Conditions: from DE 197 09 914; cited from earlier work

hydrogen phosphide
minimum concentration for achieving an ovicidal action: 50 ppm
